Consider 74 compounds from PubChem BioAssay AID1439 (NMMLSC, 2008).

Sequences of proteins named here, by UniProt entry; tags and fusion partners are left off.
UniProt P09471, whole entry, looked up: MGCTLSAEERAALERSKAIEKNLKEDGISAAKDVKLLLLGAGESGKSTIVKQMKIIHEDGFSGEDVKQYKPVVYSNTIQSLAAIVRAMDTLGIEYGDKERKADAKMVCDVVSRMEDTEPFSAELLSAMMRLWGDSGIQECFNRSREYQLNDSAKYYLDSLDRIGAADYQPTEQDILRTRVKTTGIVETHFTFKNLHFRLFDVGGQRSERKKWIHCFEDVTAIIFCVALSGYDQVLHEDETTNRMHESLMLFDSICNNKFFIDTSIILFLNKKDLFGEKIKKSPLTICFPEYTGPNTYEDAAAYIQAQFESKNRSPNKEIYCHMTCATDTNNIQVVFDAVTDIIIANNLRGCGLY

The entries are a selection whose mix differs from that of the whole data set. Records with an inconclusive call do not appear. Active and inactive are the calls of the source. Rule as the data show it: active = binding response below about 49% or above about 150%; inconclusive = no clear call, values can overlap the other calls; inactive = in between.

The target of the assay is Guanine nucleotide-binding protein G(o) subunit alpha (Homo sapiens) (UniProt P09471). The assay can be described thus: compounds changing RGS7 association with Galphao – biochemical, multiplexed bead flow cytometry, primary screen (AID 1439).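 Also: fluorescent Galphao held in activated GDP-AlF4 state binding bead-coupled RGS7.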 The conditions noted are these: at 10 µM, actives lie on both sides.
For the compound `Cc1cccc(OCC(=O)OC2CN3CCC2CC3)c1` (centres undefined), the binding response (% of control) is inactive: 95.6%. As for `COc1cc(C(=O)NCC2(N3CCOCC3)CCCCC2)cc(Cl)c1OC(C)C`, the figure is inactive: 104%; as for `COc1cc(C2NCCC3(OCCO3)C2(C)C)cc(OC)c1OC` (centres undefined), inactive: 119%. Next, `CCOP(=O)(Nc1cccc2ccccc12)OCC`: inactive: 101%. Next, `Cc1ccc(NCCc2c([N+](=O)[O-])cc([N+](=O)[O-])cc2[N+](=O)[O-])cc1`: inactive: 88.9%; `CCOP1(=S)c2c(C)nn(CCC#N)c2N=C(c2ccccc2F)N1C` (centres undefined): inactive: 101%; `O=P(Nc1nccs1)(Oc1ccccc1)Oc1ccccc1`: inactive: 91.8%. For `O=P(Nc1nccs1)(c1ccccc1)c1nc2ccccc2s1` (centres undefined), the binding response (% of control) was inactive: 103%. Regarding `CCOP1(=S)c2c(C)nn(CCC#N)c2N=C(c2ccc(F)cc2)N1C` (centres undefined), the binding response (% of control) is inactive: 103%. Next, `O=[N+]([O-])c1ccc2c(c1)nnn2O`: inactive: 108%.

Turning to `CN(C)C1(CNC(=O)c2ccc(S(C)(=O)=O)cc2)CCCCC1`, the binding response (% of control) was inactive: 99.6%.

Regarding `Cc1nn(-c2ccccc2)c2c1P(=O)(N1CCOCC1)N(C)C(c1ccccc1)=N2` (centres undefined), the binding response (% of control) is inactive: 105%. As for `CC1CCC(C(C)C)C(OP(=O)(Nc2ccccn2)c2ccccc2)C1` (centres undefined), the figure is inactive: 97.9%; as for `Cc1ccc(OCC(=O)OC2CN3CCC2CC3)cc1` (centres undefined), inactive: 99.8%; as for `O=P1(Nc2ccc(Br)cn2)COc2ccccc2OC1`, inactive: 103%. Next, `O=P1(Nc2ncccn2)COc2ccccc2OC1`: inactive: 99.8%; `Clc1n[nH]nc1-c1nn[nH][15n]1`: inactive: 99.1%. As for `O=P1(Nc2ccccn2)COc2ccccc2OC1`, the binding response (% of control) was inactive: 101%. Consider `CC(C)/C=N\N=C(\N)N[N+](=O)[O-]`, for which the binding response (% of control) was inactive: 90.7%. As for `CN(C(=O)Cc1ccc(Cl)c(Cl)c1)[C@@H]1CCCC[C@H]1N1CCCC1`, the binding response (% of control) is inactive: 94.2%.

`O=C(COc1ccccc1)OC1CN2CCC1CC2` (centres undefined): the binding response (% of control) is inactive: 99.6%. Take `COP1(=S)c2c(C)nn(CCC#N)c2N=C(c2ccc(F)cc2)N1C` (centres undefined): the binding response (% of control) is inactive: 97.6%. Next, `CCC(C)N(CC(C)C)C(=S)SC(NC(C)=O)C(Cl)(Cl)Cl` (centres undefined): inactive: 102%; `Cc1cc(SC(NC(=O)c2ccccc2)C(Cl)(Cl)Cl)nc(C(C)C)n1` (centres undefined): inactive: 105%. With `Cc1ccc2nc3c(c(C)c2c1)CC(C(Cl)Cl)S3` (centres undefined), the binding response (% of control) was inactive: 107%. Next, `CCN(CC)C(=S)SC(NC=O)C(Cl)(Cl)Cl` (centres undefined): inactive: 99.1%; `O=[N+]([O-])c1cc([N+](=O)[O-])c(-c2ccn[nH]2)s1`: inactive: 99.3%. Next, `ClCCSc1nnc(-c2cccnc2)o1`: inactive: 102%; `COc1ccc2nc(NP(=O)(c3ccccc3)c3ccccc3)sc2c1`: inactive: 100%; `Cc1c2c(nc3ccccc13)SC(C(Cl)Cl)C2` (centres undefined): inactive: 100%. As for `O=C(OC1CN2CCC1CC2)C12CC3CC(CC(C3)C1)C2` (centres undefined), the figure is inactive: 97.1%; as for `Cc1cc(=O)[nH]c(N[N+](=O)[O-])n1`, inactive: 109%. Turning to `COc1ccc(N/C(=N/P(=O)(N2CCOCC2)N2CCOCC2)N2CCOCC2)cc1`, the binding response (% of control) is inactive: 104%. As for `CN1CCCC(OC(=O)C(c2ccccc2)c2ccccc2)C1` (centres undefined), the figure is inactive: 106%; as for `Clc1ccc(Cl)c(NC2=NCC(CBr)S2)c1` (centres undefined), inactive: 107%.

As to `COc1ccccc1OP(=O)(Nc1ccc(C)cn1)Oc1ccccc1OC`, the binding response (% of control) was inactive: 95.8%. Regarding `Cc1ccc(N/C(=N/P(=O)(N2CCOCC2)N2CCOCC2)N2CCOCC2)cc1`, the binding response (% of control) was inactive: 104%.

Turning to `NC(=O)c1cc([N+](=O)[O-])cc([N+](=O)[O-])c1N`, the binding response (% of control) was inactive: 103%. As for `Oc1ccccc1CNc1ccccn1`, the figure is inactive: 104%; as for `O=C(NC(Sc1ccncn1)C(Cl)(Cl)Cl)c1ccccc1` (centres undefined), inactive: 113%; as for `Cc1c2non([O-])c-2c(C)[n+](=O)[n+]1[O-]`, inactive: 92.5%.

On to `CC(C)CC(=O)NC(Sc1ccc(Cl)cc1)C(Cl)(Cl)Cl` (centres undefined), for which the binding response (% of control) was inactive: 97.8%. Next, `Cc1cc(SC(NC(=O)c2ccc(F)cc2)C(Cl)(Cl)Cl)ncn1` (centres undefined): inactive: 103%; `CCOP(=O)(Nc1ccccc1)OCC`: inactive: 102%; `CCN(N=Nc1nonc1N)c1nonc1N`: inactive: 97.1%. Next, `O=[N+]([O-])c1ncn(CCn2ncnc2[N+](=O)[O-])n1`: inactive: 99.8%. For `CCc1nc2c(n1)c1c(non1O)c1c2no[n+]1[O-]`, the binding response (% of control) was inactive: 105%. Consider `O=[N+]([O-])c1cc([N+](=O)[O-])c(CCNc2ccccc2)c([N+](=O)[O-])c1`, for which the binding response (% of control) was inactive: 93.2%. As for `O=[N+]([O-])c1cccc2n[nH]nc12`, the figure is inactive: 98.7%. Regarding `CC(=O)N1C2C3N(C(C)=O)C1C1N(C(C)=O)C(C(N1C(C)=O)N3C(C)=O)N2C(C)=O`, the binding response (% of control) is inactive: 102%.

Turning to `COc1ccc(C2=NCC(CBr)S2)cc1` (centres undefined), the binding response (% of control) is inactive: 107%. Next, `CC1CCN(C(=O)Oc2c(Cl)cc(Cl)c3cccnc23)CC1`: inactive: 92.8%; `CC(C)=N/N=C(\N)N[N+](=O)[O-]`: inactive: 104%; `CN(C)C(=O)OCCc1n(C)cc[n+]1C`: inactive: 98.1%. Next, `CCN(/C(=N/P(=O)(N1CCOCC1)N1CCOCC1)N1CCOCC1)c1ccc(OC)cc1`: inactive: 99.4%; `c1nnnn1CCn1cnnn1`: inactive: 88.4%. Next, `CC(C)C(=O)NC(Sc1ccccc1)C(Cl)(Cl)Cl` (centres undefined): inactive: 104%; `O=P(Nc1nccs1)(c1ccccc1)c1ccccc1`: inactive: 99%. On to `O=P(Nc1ccccn1)(c1ccc(Br)cc1)c1ccc(Br)cc1`, for which the binding response (% of control) was inactive: 96.4%.

Take `O=C(OC1CN2CCC1CC2)c1cccc(Cl)c1` (centres undefined): the binding response (% of control) was inactive: 91.9%. Next, `C(Cc1nn[nH]n1)Cc1nn[nH]n1`: inactive: 99.4%; `CC(=O)NC(SC(=S)N(C)C)C(Cl)(Cl)Cl` (centres undefined): inactive: 105%; `c1ccc(-c2nn[nH]n2)c(-c2nn[nH]n2)c1`: inactive: 68.5%.

Regarding `CCOC(=O)NC(Sc1ccccc1)C(Cl)(Cl)Cl` (centres undefined), the binding response (% of control) is inactive: 79.9%.

For the compound `CCNC(=S)/N=C(\N)N[N+](=O)[O-]`, the binding response (% of control) was inactive: 98%. As for `O=c1c2cc([N+](=O)[O-])ccc2[nH]c2c([N+](=O)[O-])cc([N+](=O)[O-])cc12`, the figure is inactive: 96%. In the case of `CCC(=O)N1C2C3N(C(=O)CC)C1C1N(C(=O)CC)C(C(N1C(=O)CC)N3C(=O)CC)N2C(=O)CC`, the binding response (% of control) is inactive: 110%.

In the case of `COC(=O)c1cc2c(s1)N=C(c1ccccc1)N(C)P2(=O)N1CCOCC1` (centres undefined), the binding response (% of control) is inactive: 99.9%. For the compound `Cc1ccc(OP(=O)(Nc2ccccn2)Oc2ccc(C)cc2)cc1`, the binding response (% of control) is inactive: 102%. With `CC(=O)NC(SC(=S)N(CC(C)C)CC(C)C)C(Cl)(Cl)Cl` (centres undefined), the binding response (% of control) is inactive: 108%. As for `CC(C)(C)C(=O)NC(Sc1ccccc1)C(Cl)(Cl)Cl` (centres undefined), the figure is inactive: 91%.

Turning to `O=P1(Nc2nc3ccc(Cl)cc3s2)COc2ccccc2O1` (centres undefined), the binding response (% of control) was inactive: 102%.

Consider `CCOc1ccc(C2=NCC(CBr)S2)cc1` (centres undefined), for which the binding response (% of control) is inactive: 108%. Consider `CC(=O)Nc1ccc(Oc2c([N+](=O)[O-])cc([N+](=O)[O-])cc2[N+](=O)[O-])cc1`, for which the binding response (% of control) was inactive: 97.3%.
